Assay [1] has as its target T1, human plasmin (Homo sapiens, UniProt P00747). As to the kind of experiment: amidolytic inhibition of 3 nM plasmin, tight-binding equation.
Assay [2] concerns the target T1, human plasmin. Nature of the assay: protease amidolytic inhibition, tight-binding equation.
For the next assay, the target named is factor XIa (human) (UniProt P03951). Described as above.
Assay [3] concerns the target T1, human plasmin. As to the kind of experiment: residual activity of 3 nM plasmin (percent fractional activity by the legend; the axis is labelled % Pm Inhibition), substrate S-2251 [A].
The target of assay [4] is T1, human plasmin. As to the kind of experiment: plasmin amidolytic inhibition, slow tight binding equation.
For assay [5], the target named is T1, human plasmin. Nature of the assay: residual amidolytic activity of 3 nM human plasmin after incubation with the inhibitor (chromogenic substrate); the axis is labelled KD1TM (nM), the legend gives the same range for BPTI.
Assay [6] addresses plasma kallikrein (human) (UniProt P03952). As to the kind of experiment: protease amidolytic inhibition, tight-binding equation.

The source of these data is patent publication US20230331817A1 (The Regents of the University of California, priority 2020, published 2023).

Several values for one entry are separate records, joined by “and”; a condition that tells them apart may be missing. Equal values may be shown once.

Regarding “aprotinin (from UniProt P00974 36-93) (other; other documents disagree on this pair)”, the Ki with human plasmin [1] was 0.49 nM; in the assay with human plasmin [2], 0.5 nM; with factor XIa (human), 326 nM; with human plasmin [4], 0.4 nM and 0.5 nM. In addition, the IC50 (read off the curve) with human plasmin [3] was 2 to 3 nM; with human plasmin [5], 2 nM.
With aprotinin (from UniProt P00974 36-93), the Ki in assay [6] was determined as 18 nM.

What is called Ki is a dissociation constant, usually derived from enzyme kinetics or from competition with a known ligand. A higher Ki goes with lower affinity.
